This note sets out measurements from BindingDB's records for 10669567.

Amino acid sequences for entries named in this document (tags omitted).
UniProt Q02293, whole entry, looked up: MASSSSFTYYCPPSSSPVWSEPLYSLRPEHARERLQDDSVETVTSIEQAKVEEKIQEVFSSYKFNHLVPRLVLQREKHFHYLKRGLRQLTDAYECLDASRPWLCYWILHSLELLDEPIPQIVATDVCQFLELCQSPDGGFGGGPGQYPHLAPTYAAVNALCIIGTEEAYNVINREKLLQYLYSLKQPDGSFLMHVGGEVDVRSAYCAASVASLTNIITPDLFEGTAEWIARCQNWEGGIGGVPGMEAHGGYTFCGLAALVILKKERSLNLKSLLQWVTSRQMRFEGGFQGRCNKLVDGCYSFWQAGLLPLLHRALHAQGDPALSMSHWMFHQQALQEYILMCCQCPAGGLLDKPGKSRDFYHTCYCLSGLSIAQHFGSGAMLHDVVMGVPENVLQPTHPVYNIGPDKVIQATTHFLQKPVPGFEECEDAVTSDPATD

SMILES strings stand for the structures.

As a reminder, the IC50 is the midpoint of a concentration-inhibition curve. Low values mean greater potency in that assay, high ones weaker potency in that assay.

The target of the assay is Protein farnesyltransferase subunit beta/geranylgeranyltransferase type-1 subunit alpha (Rattus norvegicus, UniProt Q04631+Q02293). Nature of the assay: In vitro inhibition of Farnesyltransferase (FT) by using FT [3H]-SPA kit.

`O=C(NNc1ccc([N+](=O)[O-])cc1[N+](=O)[O-])c1cc([N+](=O)[O-])cc2c1-c1ccc([N+](=O)[O-])cc1C2=O` came in with an IC50 of 110 µM.
